Several values for one entry are separate records, joined by “and”; a condition that tells them apart may be missing. Identical values can stand only once. Like-named read-outs stand apart in the source and are kept apart here.
Experiments:
mouse RIPK1 [1] = biological target: T1, mouse RIPK1 (Mus musculus, UniProt Q60855); test: cell-based; format: cell-based; conditions: L929 cells, compound 30 min, 47 °C for 8 min denature; read-out: mouse_ITDRF-CETSA (EC50) / L929-CETSA (EC50) (converted)
T1 sequence (Q60855 1-656): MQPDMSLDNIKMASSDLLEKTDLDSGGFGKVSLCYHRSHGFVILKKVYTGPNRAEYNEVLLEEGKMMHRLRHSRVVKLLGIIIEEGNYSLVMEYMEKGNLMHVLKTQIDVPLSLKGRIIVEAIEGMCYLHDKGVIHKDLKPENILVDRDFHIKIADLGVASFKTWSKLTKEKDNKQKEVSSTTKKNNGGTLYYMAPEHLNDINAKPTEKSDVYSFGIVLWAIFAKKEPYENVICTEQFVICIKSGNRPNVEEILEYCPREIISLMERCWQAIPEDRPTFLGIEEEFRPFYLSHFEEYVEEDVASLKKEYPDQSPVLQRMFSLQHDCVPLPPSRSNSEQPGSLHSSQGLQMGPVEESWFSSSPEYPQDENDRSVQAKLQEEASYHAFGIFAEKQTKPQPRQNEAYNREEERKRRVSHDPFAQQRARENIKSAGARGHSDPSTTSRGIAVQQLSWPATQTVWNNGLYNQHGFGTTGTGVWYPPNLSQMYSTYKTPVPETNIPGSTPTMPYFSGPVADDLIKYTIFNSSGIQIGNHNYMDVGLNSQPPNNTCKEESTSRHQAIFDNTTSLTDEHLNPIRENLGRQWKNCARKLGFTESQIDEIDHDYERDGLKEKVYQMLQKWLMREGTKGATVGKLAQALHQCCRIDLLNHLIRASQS

mouse RIPK1 [2] = biological target: T2, mouse RIPK1 (Mus musculus, UniProt Q60855); test: biochemical
T2 sequence (Q60855 1-374): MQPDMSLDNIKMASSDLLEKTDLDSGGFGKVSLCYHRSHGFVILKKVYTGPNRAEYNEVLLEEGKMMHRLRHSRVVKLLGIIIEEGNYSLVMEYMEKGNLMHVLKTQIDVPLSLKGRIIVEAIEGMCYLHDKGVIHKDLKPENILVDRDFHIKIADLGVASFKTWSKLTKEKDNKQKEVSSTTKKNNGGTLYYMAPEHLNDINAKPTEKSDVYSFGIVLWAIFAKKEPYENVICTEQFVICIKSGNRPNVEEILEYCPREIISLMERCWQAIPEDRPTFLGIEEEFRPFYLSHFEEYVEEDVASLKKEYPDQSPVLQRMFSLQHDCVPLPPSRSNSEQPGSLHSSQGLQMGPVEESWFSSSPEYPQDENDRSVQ

mouse RIPK1 [3] = biological target: T2, mouse RIPK1; conditions: read-out: mRIPK1 enzyme (Ki); recombinant GST-His-mouse RIPK1 (1-374), TR-FRET competition
mouse RIPK1 [4] = biological target: T1, mouse RIPK1; test: cell-based; conditions: mouse PBMCs suspended in plasma, 30 min, 47 °C for 8 min; one value per individual mouse; read-out: ITDRF EC50 in PBMCs

EC50 (mouse RIPK1 [4])	Structure (SMILES)	EC50 (mouse RIPK1 [1])	Ki (mouse RIPK1 [2])	Ki (mouse RIPK1 [3])
–	CN1C(=O)C(Cc2c[nH]c3ccccc23)NC1=S (stereo not shown) [Nec-1, Necrostatin-1, reference compound]	2800 nM	–	–
–	CNC(=O)c1ccc2c(c1)OC[C@H](N1CCc3c(nn(Cc4ccccc4)c3Cl)C1=O)C(=O)N2C [Compound 23]	290 nM	130 nM	–
–	CN1C(=O)[C@@H](N2CCc3c(nn(Cc4ccccc4)c3Cl)C2=O)COc2ccccc21 [Compound 18, (3S)-3-(2-benzyl-3-chloro-7-oxo-2,4,5,7-tetrahydro-6H-pyrazolo[3,4-c]pyridin-6-yl)-5-methyl-2,3-dihydro-1,5-benzoxazepin-4(5H)-one]	–	–	98 nM
–	Nc1ncnc2occ(-c3ccc(NC(=O)Nc4cc(C(F)(F)F)ccc4F)cc3)c12 [GSK-compound 27, reference compound]	1600 nM	3 nM	–
–	CN1C(=O)[C@@H](N2CCc3nn(Cc4ccccc4)cc3C2=O)COc2ccccc21 [Compound 15]	> 30000 nM	> 3300 nM	–
7.4 µM and 5.1 µM	CN1C(=O)[C@@H](N2CCc3cn(Cc4ccccc4F)nc3C2=O)COc2cc(C#N)ccc21 [Compound 25]	1600 nM	–	–

— article PMC5638916, “CETSA quantitatively verifies in vivo target engagement of novel RIPK1 inhibitors in various biospecimens” (Scientific Reports, 2017)
